From PubChem
In the library only some 0.46% were active in any assay of this set; here they are far more common.
GIV-Gai inh: inhibitors of GIV peptide binding to Galpha-i3, primary screen, biochemical, fluorescence polarization, FITC-GIV GBA peptide, rat Galphai3 | Guanine nucleotide-binding protein G(i) subunit alpha-3 (Rattus norvegicus), P08753 | 90 min; hits give low values; scaled: aluminum fluoride 0%, vehicle 100% | percent of control (FP), % (test concentration not listed) | hit rate 0.42% among 210,000 | AID 1224905, 2016;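 active = replicate mean at 85% of control or lower, very high polarization wells dropped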;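 note: wells of about 15 µL received 100 nL stock; the first replicate is given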
HCMV UL50-53 inh: disrupts HCMV UL50-UL53 complex binding | HTRF UL50-UL53 interaction, normalized percent inhibition | inhibition, % (no concentration beside the values) | 0.15% of 190,000 active | AID 1918969; in the data active = inhibition above about 27%, passing the limit was not always enough
GIV Gai FP conf: confirmation of inhibitors of GIV binding to rat Galpha-i3; shares compounds with GIV-Gai inh; FITC-GIV peptide binding to Galphai3, fluorescence polarization; hits give low values; fluorescence polarization, mP at 100 µM; 38% of 580 active; AID 1259350;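 active = inhibition score of 15 or more, meaning 100 minus mean polarization as percent of control over three replicates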;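 also: lower mP means peptide displaced from Galphai3 so more inhibition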
GIV-Gai AS conf: confirmation of inhibitors of GIV binding to human Galpha-i3; shares compounds with GIV-Gai inh; AlphaScreen Galphai3-GIV binding, purified proteins, 90 min; hits give low values; AlphaScreen counts at 100 µM; 39% of 580 active;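 active = inhibition score at or above a set limit, where the score is 100 minus the three-replicate mean percent of control signal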
An asterisk follows results filed as active; x = not tested or not shown; ! = not active in a repeat.

By UniProt entry, the sequences of proteins in these tests, tags left out.
Guanine nucleotide-binding protein G(i) subunit alpha-3 (Rattus norvegicus), P08753, UniProt P08753, whole entry, looked up: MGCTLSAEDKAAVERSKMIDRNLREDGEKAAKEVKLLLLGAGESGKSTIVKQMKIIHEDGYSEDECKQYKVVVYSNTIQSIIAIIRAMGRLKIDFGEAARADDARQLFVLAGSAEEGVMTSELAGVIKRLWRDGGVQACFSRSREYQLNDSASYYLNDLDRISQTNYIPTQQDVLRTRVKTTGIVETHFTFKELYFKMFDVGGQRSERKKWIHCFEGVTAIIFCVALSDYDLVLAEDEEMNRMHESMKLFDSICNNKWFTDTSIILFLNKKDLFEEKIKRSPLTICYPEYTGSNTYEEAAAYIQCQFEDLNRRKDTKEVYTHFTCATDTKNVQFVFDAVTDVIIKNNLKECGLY

#	mol	GIV-Gai inh	GIV-Gai AS conf
1	CCCSc1nnc2c(n1)OC(c1ccccc1OCC(=O)OCC)Nc1ccccc1-2 (stereo unspecified)	21.4*	34096*
2	CCOC(=O)COc1ccccc1C1Nc2ccccc2-c2nnc(SC)nc2O1 (stereo unspecified)	105.5	x
3	CCSc1nnc2c(n1)OC(c1ccc(Br)cc1)Nc1ccccc1-2 (stereo unspecified)	23.6*	29425
4	CCCSc1nnc2c(n1)OC(c1ccccc1)Nc1ccccc1-2 (stereo unspecified)	109.1	x
5	CCCCSc1nnc2c(n1)OC(/C=C/c1ccccc1[N+](=O)[O-])Nc1ccccc1-2 (stereo unspecified)	79.5*	33401*
6	CCN1C(C)=C(C)S/C1=C1\SC(=S)N(NC(C)=O)C1=O	106.3	x
7	CCN1C(C)=C(C)S/C1=C1\SC(=S)N(C2CCCCC2)C1=O	94.2	44037
8	O=[N+]([O-])c1cc(S(=O)(=O)O)cc2c1-c1c(cc(S(=O)(=O)O)cc1[N+](=O)[O-])C2	86.1	17742*
9	O=C1c2cc(S(=O)(=O)N3CCCCC3)cc([N+](=O)[O-])c2-c2c1cc(S(=O)(=O)N1CCCCC1)cc2[N+](=O)[O-]	109.4	x
10	CC1(C)CC(NCC(=O)NC2CC(C)(C)NC(C)(C)C2)CC(C)(C)N1	105.7	x
11	COc1ccc(Cn2ccc3nc(C)c(C(=O)Nc4cc(OC)cc(OC)c4)cc3c2=O)cc1	103.8	x
12	CCc1cccc(NC(=O)c2cc3c(=O)n(Cc4ccc(OC)cc4)ccc3nc2C)c1	88.5	34190

#	HCMV UL50-53 inh	GIV Gai FP conf
1	-16.1	59.3
2	-26.3	x
3	-9.7	29.9*
4	-12.1	x
5	-31.1	60.4
6	x	x
7	-24.2	73
8	x	62.2
9	x	x
10	7.4	x
11	-18.8	x
12	x	78.9

Just HCMV UL50-53 inh (2 entries from above):
| No. | compound | HCMV UL50-53 inh |
| --- | --- | --- |
| 3 | CCSc1nnc2c(n1)OC(c1ccc(Br)cc1)Nc1ccccc1-2 (stereo unspecified) | -9.7 |
| 1 | CCCSc1nnc2c(n1)OC(c1ccccc1OCC(=O)OCC)Nc1ccccc1-2 (stereo unspecified) | -16.1 |

Continued:
#	mol	GIV-Gai inh	GIV-Gai AS conf
13	COC(=O)c1ccc(N2N=C(C)/C(=C/c3ccc(-c4cccc(C(=O)O)c4)o3)C2=O)cc1	85.6	18724*
14	CCOC(=O)c1cccc(-c2ccc(/C=C3\C(=O)N(c4cccc(C(=O)O)c4)N=C3C)o2)c1	92.9	x
15	CCn1c2ccc(OC)cc2c2nc3ccccc3nc21	96.1	x
16	CCn1c2ccccc2c2nc3cc4ccccc4cc3nc21	44.0*	55414
17	C=CCN(Cc1nc(-c2ccc(Cl)cc2)no1)C(=O)C(C)(C)C	99.8	x
18	Cn1c(=O)n(CC(=O)O)c(=O)c2c1nc1n2CCCN1c1ccc(F)cc1	92.5	x
19	Cn1c(=O)n(CC(=O)O)c(=O)c2c1nc1n2CCN1c1ccc(F)cc1	85.0*	39054
20	Cc1ccc(C)n1CCC(=O)O	71.4*	3780*
21	Cc1ccc(C)n1Cc1ccc(C(=O)O)cc1	33.2*	3139*
22	Cc1ccn(CCC(=O)O)n1	102.9	x
23	Cc1cc(C)n(Cc2ccc(C(=O)O)cc2)n1	x	x
24	COc1ccccc1NS(=O)(=O)c1cccc(C(F)(F)F)c1	100.5	x

#	HCMV UL50-53 inh	GIV Gai FP conf
13	-20.0	56.2
14	-26.9	x
15	-60.1	x
16	-7.8	39*
17	-2.1	x
18	-7.8	x
19	-0.4	64.4
20	-0.8	60.3
21	70.4*	48.2*
22	-23.9	x
23	-13.6	x
24	-4.8	x

Continuation.
#	mol	GIV-Gai inh	GIV-Gai AS conf
25	O=C(CC(C(=O)O)N1CCN(c2ccc3c(c2)OCO3)CC1)c1ccc(C2CCCCC2)cc1 (stereo unspecified)	x	x
26	O=C(Nc1ccccc1)OC(CSc1ccccn1)CSc1ccccn1	107.5	x
27	Cc1[nH]c(C)c(S(=O)(=O)N2CCOCC2)c1-c1nnc(C2CCC2)o1	105.7	x
28	COc1ccc(C2(C(=O)NC(C)(C)CO)CCCC2)cc1OC	103.3	x
29	COc1cc(OC)cc(C(=O)Nc2ccc(SCc3cc(=O)n4c(ncn4C(C)C)n3)cc2)c1	102.5	x
30	CC(Oc1ccccc1)C(=O)N/N=C/c1ccccc1 (stereo unspecified)	x	x
31	Oc1ccccc1C1=Nc2ccccc2N=C(c2ccc(Cl)cc2)C1	72.2*!	44887
32	Oc1ccc(Cl)cc1C1=Nc2ccccc2N=C(c2ccc(Cl)cc2)C1	99.2	x
33	O=C1c2ccccc2-c2n[nH]c(=S)nc21	96.7	x
34	O=C1c2ccccc2-c2nc3nonc3nc21	49.0*	17911*
35	Cc1cc(C(F)(F)F)c2c(n1)sc1c(O)cc(=O)[nH]c12	108.5	x
36	O=c1cc(O)c2sc3nc(-c4ccco4)cc(C(F)(F)F)c3c2[nH]1	71.9*	5742*

#	HCMV UL50-53 inh	GIV Gai FP conf
25	6.1	x
26	-5.0	x
27	x	x
28	-14.0	x
29	-31.6	x
30	-23.7	x
31	-0.6	67.5
32	x	x
33	-170.2	x
34	35.8	44*
35	x	x
36	-64.0	59.9*

Structural class, the compounds so far containing a thiophene ring, fused or not (2)
#	mol	GIV-Gai inh	GIV-Gai AS conf
35	Cc1cc(C(F)(F)F)c2c(n1)sc1c(O)cc(=O)[nH]c12	108.5	x
36	O=c1cc(O)c2sc3nc(-c4ccco4)cc(C(F)(F)F)c3c2[nH]1	71.9*	5742*

#	HCMV UL50-53 inh	GIV Gai FP conf
35	x	x
36	-64.0	59.9*

Next section.
#	mol	GIV-Gai inh	GIV-Gai AS conf
37	CC(C)(C)c1ccc(C2=NN(c3ccccc3)C3(SC(c4ccc([N+](=O)[O-])cc4)=NN3c3ccccc3)c3ccccc32)cc1 (stereo unspecified)	107.0	x
38	COc1ccc2c(c1)N(C)/C(=c1/s/c(=C3/C(=O)N(c4ccccc4)N=C3C)n(C)c1=O)S2	73.0*	34539
39	COc1ccc2c(c1)N(C)/C(=c1/s/c(=C3/C(=O)N(C)C(=S)N3C)n(Cc3ccccc3)c1=O)S2	110.6	x
40	CNC1CCCCN(C(=O)c2ccc(F)cc2)C1=O (stereo unspecified)	x	x
41	CC(C)C(NS(=O)(=O)c1cccs1)C(=O)NCc1cccnc1 (stereo unspecified)	105.5	x
42	CCCOc1ccc(CNC(=O)C(NS(=O)(=O)c2cccs2)C(C)C)cc1 (stereo unspecified)	84.5*	35946
43	COc1cccc(-c2cc(N)n(S(=O)(=O)c3ccc(C)cc3)n2)c1	109.2	x
44	CCCS(=O)(=O)c1nc2ccc(NS(=O)(=O)c3ccc(F)cc3)cc2s1	112.2	x
45	CC(=O)Nc1nonc1NC(C)=O	107.1	x
46	CC(=O)Nc1cc(OC(C)=O)c2nonc2c1OC(C)=O	-28.4*	3290*
47	CCOC(=O)N1CC=C2C(C#N)=C(N)C(C#N)(C#N)C(c3cccs3)C2C1 (stereo unspecified)	106.8	x
48	CCN1C=CC2=C(C#N)C(N)C(C#N)(C#N)C(c3cccs3)C2C1 (stereo unspecified)	65.0*	28433

#	HCMV UL50-53 inh	GIV Gai FP conf
37	x	x
38	-33.6	74.5
39	x	x
40	-33.7	x
41	4.5	x
42	x	81.8
43	-5.2	x
44	x	x
45	-8.7	x
46	100.8*	16.2*
47	x	x
48	-50.6	64.2

(list continues)
#	mol	GIV-Gai inh	GIV-Gai AS conf
49	CC1=CC(=Nc2c(C)n(C)n(-c3ccccc3)c2=O)c2ccccc2C1=O	106.8	x
50	Cc1c(N=c2c(=O)c3ccccc3c2=O)c(=O)n(-c2ccccc2)n1C	61.9*	26896
51	O=C1C(Cc2ccc(-c3nn[nH]n3)cc2)=C(c2ccccc2)S(=O)(=O)c2ccccc21	85.9	36755*
52	O=C1c2ccccc2S(=O)(=O)c2cc(-c3nn[nH]n3)ccc21	97.0	x
53	CNc1nnc(Sc2nnc(NC)s2)s1	102.9	x
54	O=c1c(=NNc2ccccc2)c(=O)c2ccccc12	111.0	x
55	O=c1c(=NNc2nn[nH]n2)c(=O)c2ccccc12	39.8*	17853*
56	Cc1ccc(-c2c(C)noc2C)cc1S(=O)(=O)Nc1ccc(S(N)(=O)=O)cc1	98.4	x
57	CCOc1ccc(Nc2c3c4c(cccc4[nH]c2=O)C(=O)c2ccccc2-3)cc1	32.1*	39358
58	COc1ccc(Nc2c3c4c(cccc4n(C)c2=O)C(=O)c2ccccc2-3)cc1	103.3	x
59	COc1ccc(N2C(=O)c3c(C)nc4ccccc4c3C2=O)cc1OC	102.9	x
60	COc1ccc(N2C(=O)c3c(C)nc4ccccc4c3C2=O)cn1	84.3*	42415
61	Cc1c(S(=O)(=O)NCCc2ccccn2)sc2ccc(Cl)cc12	103.1	x

#	HCMV UL50-53 inh	GIV Gai FP conf
49	-23.4	x
50	x	47.5*
51	-20.7	62.1
52	-209.1	x
53	-9.7	x
54	-76.5	x
55	-11.5	39.1*
56	-47.7	x
57	-30.0	28*
58	x	x
59	-29.4	x
60	-38.5	54.6
61	-0.2	x
